Results taken from patent publication EP0536177B1, “THROMBIN INHIBITORS BASED ON THE AMINO ACID SEQUENCE OF HIRUDIN” (MAJESTY (HER) IN RIGHT OF CANADA as represented by THE …, priority 1990, dated 1991).

What was measured:
[1] = molecular target: T1, human α-thrombin (Homo sapiens, UniProt P00734); experiment: Amidolytic (fluorogenic) assay of thrombin activity, hydrolysis of Tosyl-Gly-Pro-Arg-AMC; type: biochemical; conditions: mean of three determinations ± SEM, ni: not inhibited
T1 construct: the enzyme (human or bovine α-thrombin 0.4 nM)
Protocol: Thrombin-catalyzed hydrolysis of Tos-Gly-Pro-Arg-pNA was monitored at 405 nm on a Varian Cary 2000 double beam spectrophotometer using substrate concentrations of 2.5, 3.5, 5 and 10 µM in a final volume of 1mL. The hydrolytic reactions were performed at 25°C in 0.1 M Tris-HCl buffer, pH 7.8, containing 0.1 M NaCl and 0.1% PEG 6000. The reactions were initiated by addition of the substrate dissolved in 0.1 M Tris-HCl buffer, pH 7.8 to a preincubated solution of enzyme (0.4 or 0.04 nM) and variable concentrations of inhibitor dissolved in the same buffer. Initial velocities were recorded and Ki values were determined graphically by weighted linear regression of Dixon plots in the case of competitive inhibition, or by the method of Baici (Baici, 1981) for hyperbolic inhibition. Fluorogenic assays were conducted using the same conditions and instrument as above operating in the fluorescence mode in the Ratio (λex=383 nm, λem=455 nm). Fluorescence intensities were calibrated with 7-amino-4-methyl coumarin solution of known concentration. The specificity of the synthetic peptides of the present invention for human α-thrombin may also be determined by comparing their relative inhibitory activities towards both human α-thrombin and bovine α-thrombin and trypsin by comparing K1 values obtained in the amidolytic assay of thrombin activity.

[2] = Stability of polypeptides in plasma against proteolysis; type: in vitro ADME; conditions: after 30 minutes at 37°C in reconstituted normal human plasma with thromboplastin and calcium chloride, pH 7.8 (Figure 3); read-out: degraded
Protocol: The peptides of this invention were evaluated for in vitro plasma stability against proteolysis.
600 µg of peptide was mixed with 250 µl of reconstituted normal human plasma, 250 µl of thromboplastin, 600 µg of calcium chloride and 50 mM NaHPO4 buffer ph 7.8 to a final volume of 900 µl.
The mixture was incubated at 37°C and 100 µl aliquots were removed at designated time intervals. 20 µl of 10% trichloroacetic acid was added to individual aliquot and centrifuged at 12 X K for 10 minutes. The supernatant was injected on a C18 analytical column and chromatographed by standard elution procedure (i.e. at 60% 0.1% TFA/H2O to 0.1 TFA in CH3CN).

[3] = molecular target: T1, human α-thrombin; experiment: Fibrinogen clotting assay; type: biochemical; conditions: inhibition of fibrin clot formation by human α-thrombin

SMILES | Ki [1] [nM] | metabolised at 0.5 h, 0.667 mg/mL [2] [%] | IC50 [3] [nM]
CC[C@H](C)[C@H](NC(=O)[C@H](CCC(=O)O)NC(=O)[C@H](CCC(=O)O)NC(=O)[C@H](Cc1ccccc1)NC(=O)[C@H](CC(=O)O)NC(=O)CNC(=O)[C@H](CC(=O)O)NC(=O)[C@H](CC(N)=O)NC(=O)[C@H](Cc1c[nH]cn1)NC(=O)[C@H](CO)NC(=O)[C@H](CCC(N)=O)NC(=O)[C@H]1CCCN1C(=O)[C@H](CCCNC(=N)N)NC(=O)[C@@H]1CCCN1C(=O)[C@@H](Cc1ccccc1)NC(C)=O)C(=O)N1CCC[C@H]1C(=O)N[C@@H](CCC(=O)O)C(=O)N[C@@H](CCC(=O)O)C(=O)N[C@@H](Cc1ccc(O)cc1)C(=O)N[C@@H](CC(C)C)C(=O)N[C@@H](CCC(N)=O)C(=O)O [P52, [D-Phe^45,Arg^47,D-Pro^48]hirudin^45-65] | 46 ± 3 | – | –
CC[C@H](C)[C@H](NC(=O)[C@H](CCC(=O)O)NC(=O)[C@H](CCC(=O)O)NC(=O)[C@H](Cc1ccccc1)NC(=O)[C@H](CC(=O)O)NC(=O)CNC(=O)[C@H](CC(=O)O)NC(=O)[C@H](CC(N)=O)NC(=O)[C@H](Cc1c[nH]cn1)NC(=O)[C@H](CO)NC(=O)[C@H](CCC(N)=O)NC(=O)[C@@H]1CCCN1C(=O)[C@H](CCCNC(=N)N)NC(=O)[C@@H]1CCCN1C(=O)[C@@H](Cc1ccccc1)NC(C)=O)C(=O)N1CCC[C@H]1C(=O)N[C@@H](CCC(=O)O)C(=O)N[C@@H](CCC(=O)O)C(=O)N[C@@H](Cc1ccc(O)cc1)C(=O)N[C@@H](CC(C)C)C(=O)N[C@@H](CCC(N)=O)C(=O)O [P53, [D-Phe^45,Arg^47]hirudin^45-65] | 2.8 ± 0.9 | > 50 | 4 ± 0.8
